From patent EP1881000A1, “Conjugates of 2-fluoro-2-deoxy-glucose and their uses as anti cancer agents” (INSTITUT NATIONAL DE LA SANTE ET DE LA RECHERCHE MEDICALE …, priority 2006, dated 2008)

Experiment: Determination of the Maximum Tolerated Dose (MTD), acute toxicity after a single IP injection
Format: in vivo, male OF1 mice
Parameters: key: per mouse 0 = absent, 1 = present per sign; summed over group
Conditions: group sum
Method: Drugs were dissolved in a mixture of dimethylacetamide (Sigma) and oleic macrogolglycerides (Labrafil® M1944Cs, Gattefossé) (10:90%, vol/vol).
Initially, the Maximum Tolerated Dose (MTD) after intraperitoneal (IP) administration was determinated.
For MTD determination, study was conducted on male OF1 mice weighing about 30 g, 6-weeks old (Charles River, France). Groups of five to six mice received a single IP injection of each drug at variable doses according to the compound (see Tables 2, 3 and 4).
Individual dose were based on the body weight of each mouse. All the mice received a constant injection volume of 250 µL per 25 g of body weight. A group of seven control mice received the vehicle.
After IP injection, mice were weighed and observed every two days over a 2 week-period to evaluate general clinical state. For each animal, a clinical state score (CSS) was calculated based on the absence (value 0) or presence (value 1) of diarrhoea, lethargy, rough coat and closed eyes. CSS was then calculated per group by summing individual scores. Loss of weight and mortality were also recorded.

## O=C(O)CCCc1ccc(N(CCCl)CCCl)cc1 [chlorambucil, reference compound]
Single IP 0.0175 mmol/kg
  Clinical State Score (CSS) diarrhoea: 1
  Clinical State Score (CSS) lethargy: 0
  Clinical State Score (CSS) total: 1
Single IP 0.035 mmol/kg
  Clinical State Score (CSS) lethargy: 0
  Clinical State Score (CSS) rough coat: 0
  Clinical State Score (CSS) total: 2
Single IP 0.05 mmol/kg
  Clinical State Score (CSS) closed eyes: 0
  Clinical State Score (CSS) diarrhoea: 2
  Clinical State Score (CSS) lethargy: 0
  Clinical State Score (CSS) total: 2
Single IP 0.07 mmol/kg
  Clinical State Score (CSS) diarrhoea: 2
  Clinical State Score (CSS) rough coat: 5
  Clinical State Score (CSS) total: 7
Single IP 0.09 mmol/kg
  Clinical State Score (CSS) diarrhoea: 4
  Clinical State Score (CSS) rough coat: 4
  Clinical State Score (CSS) total: 8
